Settings: 2 mg/ml in 20% Intralipid, upon centrifugation

IALILEPICCQERAA [PA]
PA associated with the lipid layer: 60%
PA remained in the aqueous phase: 40%

Reference: patent US20230414506A1, “PEPTIDE FORMULATIONS AND METHODS OF USE” (REALTA LIFE SCIENCES, INC., priority 2020, published 2023)
